## Yeast mating assay 2: variants of the scFv Ab-95

From the AlphaSeq antibody data of Engelhart et al. 2022 (doi:10.1038/s41597-022-01779-4), copy in the FLAb collection.

All variants were tested on one target, the spike HR2 peptide PDVDLGDISGINAS (SARS-CoV-2).

Parent scFv Ab-95: VH joined to VL by a (GGGGS)3 linker. Changes lie in the light chain CDRs alone.
VH: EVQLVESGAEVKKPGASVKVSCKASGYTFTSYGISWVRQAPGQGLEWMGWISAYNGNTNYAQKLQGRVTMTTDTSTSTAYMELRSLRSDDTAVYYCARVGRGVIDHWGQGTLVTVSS
VL: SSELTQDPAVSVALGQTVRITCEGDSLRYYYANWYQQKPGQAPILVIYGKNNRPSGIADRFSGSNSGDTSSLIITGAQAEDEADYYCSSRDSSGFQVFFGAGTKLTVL

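The starting antibody came from a phage panning campaign against this peptide. AAYL52 was designed without a model: most single CDR substitutions and a random sample of double and triple ones. The scFvs were displayed on barcoded MATa yeast, the peptide on MATalpha yeast. Mating (16 h, 30 °C) was followed by selection of diploids and sequencing of their barcodes. Read counts were normalised to the haploid input and turned into Kd by a linear fit to BCL2-family pairs of known affinity, for each replicate. Mating was done three times.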

The parent's light chain CDRs are EGDSLRYYYAN, GKNNRPS, SSRDSSGFQVF; each variant's own CDRs replace them letter for letter.
This list gathers variants with a substitution at K50 (VL, numbered from residue 1).
Kd is apparent (estimated from mating counts) and averaged on the log scale over replicates with a signal. Smaller is tighter.
A pair that was not seen in any replicate is written "nd"; this usually means weak binding, but a binder can also be missed.
Entries are sorted by rising average, undetected variants last.
Background: pairings of library AAYL52 with three empty control strains gave a value in 28% of cases (median 8.2 µM, 5th percentile 800 nM). Values in that range, when seen in few replicates, are hard to tell from nonspecific mating. For each scFv, signals with the empty controls are counted beside the result.
Parent in this assay: reference entry 200 nM, copy in this library 180 nM.

The variant EGDSLRYGYAN / GRNNRPS / SSRDSSGFQVF gave 5.4 nM (3 of 3 replicates; controls 0 of 9). The variant EGDSLRGYYAN / GTNNRPS / SSRDSSGFFVF showed 64 nM (3 of 3 replicates; controls 2 of 9). The variant EGDSLRYYYMN / GNNNRPS / SSRDSSGFPVF showed 65 nM (3 of 3 replicates; controls 3 of 9). The variant EGDSLRDYYAN / GENNRPS / SSRDSSKFQVF gave 86 nM (3 of 3 replicates; controls 3 of 9). With EGTSLRYYYAN / GPNNRAS / SSRDSSGFQVF the result was 120 nM (3 of 3 replicates; controls 3 of 9). The variant EGDSLRYYYAN / GHNERPS / SSRDSLGFQVF gave 150 nM (3 of 3 replicates; controls 2 of 9). The variant EGDSLRYYDAN / GCNNRPS / SSRGSSGFQVF showed 180 nM (3 of 3 replicates; controls 3 of 9). The variant YGDSLRYYYAN / GNNNRPS / SSRDSSGFQVY showed 240 nM (3 of 3 replicates; controls 3 of 9).

For EGMSLRYYYAN / GCNNRPS / SSRDSSGPQVF, the assay gave 520 nM (1 of 3 replicates; controls 1 of 9). With EGDSLRYYYAN / GENNRPS / SSRDSSGFRVL the result was 710 nM (3 of 3 replicates; controls 4 of 9). With EGDSLRYYYAN / GDNNTPS / SSRDSSGFQAF the result was 780 nM (3 of 3 replicates; controls 3 of 9). For EGDSERYYYYN / GHNNRPS / SSRDSSGFQVF, the assay gave 1.1 µM (3 of 3 replicates; controls 2 of 9). The variant EQDSLRYYYFN / GYNNRPS / SSRDSSGFQVF showed 1.3 µM (1 of 3 replicates; controls 1 of 9). For EGDSLRYYYAN / GINNRPS / CSRDSSGFQVF, the assay gave 1.4 µM (2 of 3 replicates; controls 3 of 9). The variant EGDSLRYYYAN / GFNARPS / SSRDSSGFQVF gave 1.7 µM (3 of 3 replicates; controls 4 of 9). The variant EGDVLRYYYAN / GINNRPS / ISRDSSGFQVF showed 1.9 µM (1 of 3 replicates; controls 2 of 9).

For EGLSLRYYYAK / GRNNRPS / SSRDSSGFQVF, the assay gave 2.4 µM (3 of 3 replicates; controls 3 of 9). For EGDSLRYYYAN / GSNMRPP / SSRDSSGFQVF, the assay gave 2.7 µM (3 of 3 replicates; controls 4 of 9). For EGDSLRYYYAN / GVNNRKS / NSRDSSGFQVF, the assay gave 3.0 µM (3 of 3 replicates; controls 0 of 9). With EGDSLRYYYAN / MCNNGPS / SSRDSSGFQVF the result was 4.8 µM (2 of 3 replicates; controls 7 of 9). For EGDSSRSYYAN / GENNRPS / SSRDSSGFQVF, the assay gave 6.9 µM (3 of 3 replicates; controls 0 of 9). For EGDSLRYYDAN / WFNNRPS / SSRDSSGFQVF, the assay gave 7.1 µM (2 of 3 replicates; controls 3 of 9). The variant EDDSLRYYYAN / GFNNQPS / SSRDSSGFQVF gave 7.7 µM (1 of 3 replicates; controls 2 of 9). With EGDSLRYYCAN / GFNNRPC / SSRDSSGFQVF the result was 8.4 µM (3 of 3 replicates; controls 1 of 9).

The variant EGDSLRYYYAM / GFNNRPS / SSRDSSGFQAF gave 8.9 µM (2 of 3 replicates; controls 3 of 9). The variant EGDSLRYYYAN / GHNNRPS / SSRESSGFDVF gave 11 µM (2 of 3 replicates; controls 1 of 9). With EGDTARYYYAN / GRNNRPS / SSRDSSGFQVF the result was 12 µM (2 of 3 replicates; controls 2 of 9). For EGDELHYYYAN / GCNNRPS / SSRDSSGFQVF, the assay gave 15 µM (3 of 3 replicates; controls 4 of 9). The variant EGDSLRYYYAN / IMNNRPS / SSRDSSGFTVF gave 22 µM (2 of 3 replicates; controls 2 of 9). The variant EGDSLWYYYAN / GYNNRPS / SSRDSSGFQSF showed 22 µM (3 of 3 replicates; controls 2 of 9). The variant EGDSLRYYYAN / GINNRFS / SSRDSSIFQVF gave 28 µM (2 of 3 replicates; controls 2 of 9). With EGDSLRYYYAN / WTNNRPS / SSRPSSGFQVF the result was 33 µM (1 of 3 replicates; controls 5 of 9).

The variant EGDNLRYYYAN / GFNNRPS / SSPDSSGFQVF showed 36 µM (2 of 3 replicates; controls 4 of 9). The variant EGDSLRYVYAV / GPNNRPS / SSRDSSGFQVF showed 47 µM (3 of 3 replicates; controls 4 of 9). For EGDSLRYYHAM / GCNNRPS / SSRDSSGFQVF, the assay gave 48 µM (3 of 3 replicates; controls 5 of 9). With EGDSLFIYYAN / GENNRPS / SSRDSSGFQVF the result was 53 µM (2 of 3 replicates; controls 1 of 9). The variant EVDPLRYYYAN / GYNNRPS / SSRDSSGFQVF gave 190 µM (1 of 3 replicates; controls 5 of 9). With EGDSLRYYYAA / GHNNRRS / SSRDSSGFQVF the result was nd (0 of 3 replicates; controls 2 of 9). With EGDSLRYYYAY / GSNNRPS / ASRDSSGFQVF the result was nd (0 of 3 replicates; controls 5 of 9). With EGDSLRYYYAN / GHNNRPS / SSRFSSGLQVF the result was nd (0 of 3 replicates; controls 2 of 9).

Excerpt, the final 3 entries:

CDR-L1	CDR-L2	CDR-L3	Kd (apparent)	replicates with signal	empty controls
EGDSLRYYYAA	GHNNRRS	SSRDSSGFQVF	nd	0 of 3	2 of 9
EGDSLRYYYAY	GSNNRPS	ASRDSSGFQVF	nd	0 of 3	5 of 9
EGDSLRYYYAN	GHNNRPS	SSRFSSGLQVF	nd	0 of 3	2 of 9